Experimental data: patent US8575375B2, “Androstane and pregnane steroids with potent allosteric GABA receptor chloride ionophore modulating properties” (Research Triangle Institute, priority 2007, dated 2013)

Legend:
GABAA receptor [1] = assay: [35S]TBPS binding assay in rat brain cerebral cortex homogenates; conditions: rat cortical membranes, 6.25 μM GABA, 2 nM [35S]TBPS; mean±SD
Description: Tissue preparation. Rat brain cerebral cortex homogenates and the binding assays were conducted essentially as described (Carter et al., 1997). Briefly, adult male Sprague-Dawley rats (Charles River Laboratories, Raleigh, N.C.) were killed by excess CO2 asphyxiation, decapitated, and their brain rapidly removed and frozen on dry ice before being stored −76° C. The frozen cortices were placed in 10 volumes of an ice-cold 0.32 M sucrose solution and homogenized with a Teflon-glass homogenizer. The homogenate was centrifuged at 1500×g (10 min at 4° C.). The supernatant was retained and centrifuged at 10,000×g (20 min at 4° C.), yielding the P2 pellet. […]
[^35S]TBPS binding assays. […] Nonspecific binding was determined in the presence of 200 μM picrotoxin. […] The radioactivity remaining on the filter was determined in a TopCount 12-detector scintillation counter (Packard Instruments, Meriden, Conn.) using 20 μl of MicroScint20 (Packard Instruments) per well and standard liquid scintillation counting techniques.
The Emax values are for pregnanolone and the test compounds are presented as the percentage of Emax determined for allopregnanolone. The average enhancement of [^3H]flunitrazepam measured in the presence of allopregnanolone was approximately 60%. […]

GABAA receptor [2] = assay: [3H]Flunitrazepam binding assay (enhancement) in rat brain cerebral cortex homogenates
Description: Tissue preparation. Rat brain cerebral cortex homogenates and the binding assays were conducted essentially as described (Carter et al., 1997). Briefly, adult male Sprague-Dawley rats (Charles River Laboratories, Raleigh, N.C.) were killed by excess CO2 asphyxiation, decapitated, and their brain rapidly removed and frozen on dry ice before being stored −76° C. The frozen cortices were placed in 10 volumes of an ice-cold 0.32 M sucrose solution and homogenized with a Teflon-glass homogenizer. The homogenate was centrifuged at 1500×g (10 min at 4° C.). The supernatant was retained and centrifuged at 10,000×g (20 min at 4° C.), yielding the P2 pellet. The P2 pellet was resuspended in an equal volume of a 50 mM Na+/K+ phosphate buffer containing 200 mM NaCl (pH 7.4) and centrifuged at 10,000×g (10 min at 4° C.). The pellet was washed twice more, resuspended in 1/10 volume of buffer and stored at −76° C. until the time of assay.
[^3H]Flunitrazepam binding assay. This assay was conducted as described for the [^35S]TBPS assay except that the assays contained 20 μg tissue homogenate, 1.0 μM GABA and 1.0 nM [^3H]flunitrazepam (74.1-85 Ci/mmol). Clonazepam (1.0 μM) was used to determine nonspecific binding.
The Emax values are for pregnanolone and the test compounds are presented as the percentage of Emax determined for allopregnanolone. The average enhancement of [^3H]flunitrazepam measured in the presence of allopregnanolone was approximately 60%. In cases where limited inhibition of [^35S]TBPS or enhancement of [^3H]flunitrazepam occurred at the top concentration of 10,000 nM, the IC50 or EC50 values are given as >10,000 nM. The data for the active compounds are reported as the mean±SD from at least three independent experiments.

SMILES: CC(=O)[C@H]1CC[C@H]2[C@@H]3CC[C@H]4C[C@H](O)CC[C@]4(C)[C@H]3CC[C@]12C [Allopregnanolone, 3α-hydroxy-5α-pregnane-20-one, reference compound]
- IC50 (GABAA receptor [1]): 12.6 ± 1.7 nM
- average enhancement of [3H]flunitrazepam (GABAA receptor [2]; in the presence of allopregnanolone): approximately 60%
- [3H]Flunitrazepam Emax (GABAA receptor [2]; percentage of Emax determined for allopregnanolone): 100%
- EC50 (GABAA receptor [2]; rat cortical membranes, 1.0 μM GABA, 1.0 nM [3H]flunitrazepam, mean±SD): 26 ± 9.9 nM
